Reference: patent US20250387388A1, “COMPOUND AS TRK INHIBITOR AND/OR RET INHIBITOR AND USE THEREOF” (Medinno Pharmaceutical Technology (Zhuhai) Co., Ltd., priority 2022, published 2025)

Test system: acne model in rabbits
Assay: Acne model in rabbits (coal tar + Propionibacterium acnes)
Parameters: species or system New Zealand white rabbits
Conditions: rabbit, in vivo

## CCC[C@@H]1C[C@@H](C(=O)N[C@@H]([C@H]2O[C@H](SC)[C@H](O)[C@@H](O)[C@H]2O)[C@H](C)Cl)N(C)C1 [clindamycin, reference compound]
  Ear tissue HE staining: still a significant amount of keratin hyperplasia
